US6063766A, “Transport protein which effects the transport of cationic xenobiotics and/or pharmaceuticals, DNA sequences encoding it and their use” (priority 1994, dated 2000)

Legend:
[1] = target: T1, OCT1 transport protein (Rattus norvegicus, UniProt Q63089); conditions: Ki for inhibition of OCT1-elicited ^14 C-TEA uptake (mM, text)
T1 sequence (Q63089 1-556): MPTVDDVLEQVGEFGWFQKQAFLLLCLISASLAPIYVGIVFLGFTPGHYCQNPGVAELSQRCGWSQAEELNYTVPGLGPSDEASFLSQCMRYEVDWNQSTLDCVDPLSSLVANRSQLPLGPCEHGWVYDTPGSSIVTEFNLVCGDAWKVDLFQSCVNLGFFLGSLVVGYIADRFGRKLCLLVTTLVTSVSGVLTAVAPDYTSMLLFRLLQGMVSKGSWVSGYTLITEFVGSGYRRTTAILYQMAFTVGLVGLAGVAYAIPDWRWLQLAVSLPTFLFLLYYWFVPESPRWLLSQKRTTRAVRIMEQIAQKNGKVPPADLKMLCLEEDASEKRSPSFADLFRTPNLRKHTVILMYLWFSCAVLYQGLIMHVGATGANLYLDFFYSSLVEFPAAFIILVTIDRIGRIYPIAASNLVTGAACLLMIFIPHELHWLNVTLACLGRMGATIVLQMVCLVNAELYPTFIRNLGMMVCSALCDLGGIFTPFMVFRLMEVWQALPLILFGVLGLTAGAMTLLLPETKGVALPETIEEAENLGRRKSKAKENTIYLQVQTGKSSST

[2] = target: T1, OCT1 transport protein; conditions: xenopus oocytes expressing oct1
[3] = target: MPP uptake in hepatocytes; conditions: cultured hepatocytes; cited from earlier work

Row | Structure (SMILES) | Ki [1] [mM] | Ki [2] [µM] | Ki [3] [µM]
1 | C[N+](C)(C)C [Tetramethylammonium] | ~1 | 1000 | 
2 | C=C[C@H]1C[N@@]2CC[C@H]1C[C@H]2[C@H](O)c1ccnc2ccc(OC)cc12 [Quinine] |  |  | 0.8

Where two headings read alike, the source gives them in different places.
